# OPERA 2.9 data: vapor pressure values

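These are experimental values that the OPERA curators gathered from public databases to train and test their QSAR models. A listed value is a point estimate from one report or more. Method, purity and exact conditions of the single measurements are not given. The measured form (salt, isomer or mixture) is not always the one drawn. Some entries may be limits or estimates that an upstream database listed as plain numbers.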

Vapor pressures (log10 mmHg) refer to near room temperature, 15 to 30 °C; higher is more volatile.
"via" names the databases from which the curators took the value.

compound,vapor pressure (log10 mmHg),via
FC(F)COC(F)(F)C(F)F,1.888,ICF
O=C(CCl)C(Cl)Cl,-0.648,eChemPortal
S=C=Nc1ccccc1,0.176,OCHEM
Clc1ccc(-c2ccccc2)c(Cl)c1Cl,-3.695,OCHEM
CNP(=O)(OC)Oc1ccc(C(C)(C)C)cc1Cl (configuration not stated),-3.1,"OCHEM, PubChem"
Clc1cc2c(oc3c(Cl)c(Cl)c(Cl)cc32)c(Cl)c1Cl,-7.425,OCHEM
C=C(C)C(=O)OCC(F)(F)C(F)C(F)(F)F (configuration not stated),1.112,ChemicalBook
COCCNC(=O)CSP(=S)(OC)OC,-5.565,OCHEM
Clc1ccc(C(Cl)(Cl)Cl)cc1,-1.523,eChemPortal
CCSC(C)CC1CC(=O)C(C(CC)=NOC/C=C/Cl)=C(O)C1 (stereo partly drawn),-7.807,OCHEM
C=CC(C)=O,1.934,PubChem
Clc1ccc(Cl)c(-c2c(Cl)c(Cl)c(Cl)c(Cl)c2Cl)c1Cl,-5.465,OCHEM
ClC(Cl)Br,1.699,PubChem
CC(C)(C)c1cc(C(C)(C)C)c2op(OCCN(CCOp3oc4c(C(C)(C)C)cc(C(C)(C)C)cc4c4cc(C(C)(C)C)cc(C(C)(C)C)c4o3)CCOp3oc4c(C(C)(C)C)cc(C(C)(C)C)cc4c4cc(C(C)(C)C)cc(C(C)(C)C)c4o3)oc3c(C(C)(C)C)cc(C(C)(C)C)cc3c2c1,-12.82,eChemPortal
CN(C)C(=O)Nc1cccc(OC(=O)NC(C)(C)C)c1,-10.35,OCHEM
Clc1cc(Cl)c(Cl)c(-c2c(Cl)c(Cl)c(Cl)c(Cl)c2Cl)c1,-5.955,OCHEM
Clc1ccc(-c2ccc(Cl)c(Cl)c2Cl)cc1,-4.495,OCHEM
NCCc1ccccc1,-0.572,"PubChem, eChemPortal"
OCC1=C[C@H](N[C@H]2C[C@H](CO)[C@@H](O[C@@H]3O[C@H](CO)[C@@H](O)[C@H](O)[C@H]3O)[C@H](O)[C@H]2O)[C@H](O)[C@@H](O)[C@@H]1O,-7.71,OCHEM
CCCCC(CC)COP(=S)(S)OCC(CC)CCCC (configuration not stated),-3.569,eChemPortal
NCC(F)F,2.076,eChemPortal
COP(=S)(OC)SCC(=O)N(c1ccc(Cl)cc1)C(C)C,-4.783,OCHEM
C=COC(=O)CCl,0.719,eChemPortal
Clc1cccc(-c2c(Cl)ccc(Cl)c2Cl)c1,-3.936,OCHEM
CP(=O)(O)CCC(N)C(=O)[O-].[NH4+] (configuration not stated),-6.633,OCHEM
O=C([O-])c1cc(Oc2ccc(C(F)(F)F)cc2Cl)ccc1[N+](=O)[O-].[Na+],-7.063,"OCHEM, OFMPub"
CCC1CCC(=O)O1 (configuration not stated),0.255,eChemPortal
FC(F)C(F)(F)COC(F)(F)C(F)C(F)(F)F (configuration not stated),1.307,ICF
O=[N+]([O-])c1ccc(Oc2ccc(Cl)cc2Cl)cc1,-5.1,OCHEM
CCOC(=O)C(Cc1ccccc1)C(C)=O (configuration not stated),-2.907,OCHEM
O=C(O)CCCCCCCCCCC(=O)O.OCCN(CCO)CCO.OCCN(CCO)CCO,-4.524,eChemPortal
[N-]=[N+]=CC(=O)OC[C@H](N)C(=O)O,-9.815,PubChem
CCCCOC(N)=O,0.345,eChemPortal
C/C=C(\C)C(=O)O[C@H]1C[C@@H](OC(C)=O)[C@@]2(C(=O)OC)CO[C@H]3[C@@H](O)[C@@](C)([C@]45O[C@@]4(C)[C@H]4C[C@@H]5O[C@@H]5OC=C[C@@]54O)[C@H]4[C@]1(CO[C@]4(O)C(=O)OC)[C@@H]32,-10.57,"OCHEM, PubChem"
COC(C(F)(F)F)(C(F)(F)F)C(F)(F)F,2.452,ICF
CC1OC(C)OC(C)OC(C)O1 (configuration not stated),-1.353,"OCHEM, eChemPortal"
CC(C)([S-])C(N)C(=O)[O-].[Pb+2],-10.85,eChemPortal
Clc1ccc(-c2ccccc2Cl)c(Cl)c1,-3.225,OCHEM
O=S(=O)(F)C(F)(F)C(F)(F)C(F)(F)C(F)(F)F,2.063,eChemPortal
FC(F)CNCc1ccc(Cl)nc1,-3.637,eChemPortal
NC(=O)CCl,-2.577,eChemPortal
CC(=O)CC(c1ccc(Cl)cc1)c1c(O)c2ccccc2oc1=O (configuration not stated),-7.011,OCHEM
O=S(=O)(F)C(F)(F)C(F)(F)C(F)(F)C(F)(F)C(F)(F)C(F)(F)C(F)(F)C(F)(F)F,1,ChemicalBook
CC(=O)c1cc2c(cc1C)C(C)(C)C(C)CC2(C)C (configuration not stated),-3.291,"OCHEM, eChemPortal"
NCCCNCCCN,-2.024,eChemPortal
Clc1ccc(-c2c(Cl)cccc2Cl)cc1,-3.365,OCHEM
COc1ccc(C=O)cc1OC,-3.171,eChemPortal
CC(C)(C)OOC(C)(C)c1ccc(C(C)(C)OOC(C)(C)C)cc1,-6.171,eChemPortal
Nc1ccc(Cc2ccc(N)c(Cl)c2)cc1Cl,-4.958,eChemPortal
CCC(=O)Cl,1.9,eChemPortal
Clc1cc2c(cc1Cl)Oc1c(ccc(Cl)c1Cl)O2,-6.485,OCHEM
Cc1ccc(C)c2c(C)cccc12,-2.295,OCHEM
FC(F)OCC(F)(F)C(F)F,1.945,ICF
CC(=O)O[C@H]1CC[C@@]2(C)C(=CC[C@@H]3[C@@H]2CC[C@]2(C)C(=O)CC[C@@H]32)C1,-8.287,eChemPortal
N#CC(Br)c1ccccc1 (configuration not stated),-1.921,PubChem
Clc1cc(Cl)cc(-c2cc(Cl)c(Cl)c(Cl)c2Cl)c1,-5.085,OCHEM
CCC(N)c1ccccc1 (configuration not stated),-0.702,eChemPortal

The first 9 entries again:

compound,vapor pressure (log10 mmHg),via
FC(F)COC(F)(F)C(F)F,1.888,ICF
O=C(CCl)C(Cl)Cl,-0.648,eChemPortal
S=C=Nc1ccccc1,0.176,OCHEM
Clc1ccc(-c2ccccc2)c(Cl)c1Cl,-3.695,OCHEM
CNP(=O)(OC)Oc1ccc(C(C)(C)C)cc1Cl (configuration not stated),-3.1,"OCHEM, PubChem"
Clc1cc2c(oc3c(Cl)c(Cl)c(Cl)cc32)c(Cl)c1Cl,-7.425,OCHEM
C=C(C)C(=O)OCC(F)(F)C(F)C(F)(F)F (configuration not stated),1.112,ChemicalBook
COCCNC(=O)CSP(=S)(OC)OC,-5.565,OCHEM
Clc1ccc(C(Cl)(Cl)Cl)cc1,-1.523,eChemPortal

Values as listed in the OPERA 2.9 repository of K. Mansouri.